Results on two molecules are retold here after the Kinase Knowledgebase extract (Sharma et al. 2016).

Protein sequences, listed by entry. Tags and fused reporters are not part of them.
UniProt P00533, whole entry, looked up: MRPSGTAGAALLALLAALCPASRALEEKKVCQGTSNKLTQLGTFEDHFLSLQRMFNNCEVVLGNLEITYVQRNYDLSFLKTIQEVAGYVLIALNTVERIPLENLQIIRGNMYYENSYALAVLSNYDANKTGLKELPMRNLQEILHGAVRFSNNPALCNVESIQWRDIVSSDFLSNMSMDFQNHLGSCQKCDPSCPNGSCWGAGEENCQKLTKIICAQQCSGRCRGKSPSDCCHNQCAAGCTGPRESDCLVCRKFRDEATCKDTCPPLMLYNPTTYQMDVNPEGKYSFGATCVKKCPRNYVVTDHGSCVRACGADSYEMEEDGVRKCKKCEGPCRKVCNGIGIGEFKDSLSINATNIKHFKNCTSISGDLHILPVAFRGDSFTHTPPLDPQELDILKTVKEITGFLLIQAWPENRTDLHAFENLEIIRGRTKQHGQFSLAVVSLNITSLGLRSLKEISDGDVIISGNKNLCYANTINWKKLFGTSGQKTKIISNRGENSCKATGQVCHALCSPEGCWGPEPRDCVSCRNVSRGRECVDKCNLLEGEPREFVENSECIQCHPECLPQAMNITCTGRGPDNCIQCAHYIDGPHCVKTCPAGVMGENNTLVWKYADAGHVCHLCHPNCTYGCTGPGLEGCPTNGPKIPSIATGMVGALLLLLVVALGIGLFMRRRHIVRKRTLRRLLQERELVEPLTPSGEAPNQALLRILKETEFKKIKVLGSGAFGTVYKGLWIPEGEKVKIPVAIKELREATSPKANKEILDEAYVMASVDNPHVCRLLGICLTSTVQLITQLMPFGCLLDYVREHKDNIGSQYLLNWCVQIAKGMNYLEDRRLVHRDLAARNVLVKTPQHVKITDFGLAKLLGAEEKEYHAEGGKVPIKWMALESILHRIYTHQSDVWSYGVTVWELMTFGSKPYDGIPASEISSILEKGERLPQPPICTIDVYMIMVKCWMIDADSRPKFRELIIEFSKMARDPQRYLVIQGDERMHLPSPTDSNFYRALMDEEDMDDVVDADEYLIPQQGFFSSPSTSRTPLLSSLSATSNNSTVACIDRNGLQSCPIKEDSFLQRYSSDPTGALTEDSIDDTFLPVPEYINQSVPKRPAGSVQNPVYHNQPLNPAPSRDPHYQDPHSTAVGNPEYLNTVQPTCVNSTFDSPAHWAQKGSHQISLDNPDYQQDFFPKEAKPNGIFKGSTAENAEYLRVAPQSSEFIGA

In this assay the target is EGFR (human) (UniProt P00533). The conditions noted are these: huvec.

`COc1cc2c(Nc3ccc(Br)cc3F)ncnc2cc1OCCC1CCNCC1` yielded an IC50 of 80 nM. That is a double-digit nanomolar value.

`COc1cc2c(Nc3ccc(Cl)cc3F)ncnc2cc1OCCCN1CCOCC1` yielded an IC50 of 200 nM.
